Experimental data published in ChEMBL document CHEMBL3046441, “Importance of physicochemical properties for the design of new pesticides” (J Agric Food Chem, 2011).

Test: Hydrophobicity, log P of the compound in octanol-water by shaking-flask method
Assay type: physicochemical

Work on `COP(=S)(OC)Oc1ccc(SC)c(C)c1` [FENTHION] yielded a logP of 4.09.
